# Values quoted from earlier work in patent publication US9267122B2, “Modulation of phospholipase D for the treatment of neurodegenerative disorders” (THE TRUSTEES OF COLUMBIA UNIVERSITY IN THE CITY OF NEW YORK, priority 2009, dated 2016).
# Molecular target: T1, PLD1 (Homo sapiens, UniProt Q13393)
# T1 sequence (Q13393 1-1074): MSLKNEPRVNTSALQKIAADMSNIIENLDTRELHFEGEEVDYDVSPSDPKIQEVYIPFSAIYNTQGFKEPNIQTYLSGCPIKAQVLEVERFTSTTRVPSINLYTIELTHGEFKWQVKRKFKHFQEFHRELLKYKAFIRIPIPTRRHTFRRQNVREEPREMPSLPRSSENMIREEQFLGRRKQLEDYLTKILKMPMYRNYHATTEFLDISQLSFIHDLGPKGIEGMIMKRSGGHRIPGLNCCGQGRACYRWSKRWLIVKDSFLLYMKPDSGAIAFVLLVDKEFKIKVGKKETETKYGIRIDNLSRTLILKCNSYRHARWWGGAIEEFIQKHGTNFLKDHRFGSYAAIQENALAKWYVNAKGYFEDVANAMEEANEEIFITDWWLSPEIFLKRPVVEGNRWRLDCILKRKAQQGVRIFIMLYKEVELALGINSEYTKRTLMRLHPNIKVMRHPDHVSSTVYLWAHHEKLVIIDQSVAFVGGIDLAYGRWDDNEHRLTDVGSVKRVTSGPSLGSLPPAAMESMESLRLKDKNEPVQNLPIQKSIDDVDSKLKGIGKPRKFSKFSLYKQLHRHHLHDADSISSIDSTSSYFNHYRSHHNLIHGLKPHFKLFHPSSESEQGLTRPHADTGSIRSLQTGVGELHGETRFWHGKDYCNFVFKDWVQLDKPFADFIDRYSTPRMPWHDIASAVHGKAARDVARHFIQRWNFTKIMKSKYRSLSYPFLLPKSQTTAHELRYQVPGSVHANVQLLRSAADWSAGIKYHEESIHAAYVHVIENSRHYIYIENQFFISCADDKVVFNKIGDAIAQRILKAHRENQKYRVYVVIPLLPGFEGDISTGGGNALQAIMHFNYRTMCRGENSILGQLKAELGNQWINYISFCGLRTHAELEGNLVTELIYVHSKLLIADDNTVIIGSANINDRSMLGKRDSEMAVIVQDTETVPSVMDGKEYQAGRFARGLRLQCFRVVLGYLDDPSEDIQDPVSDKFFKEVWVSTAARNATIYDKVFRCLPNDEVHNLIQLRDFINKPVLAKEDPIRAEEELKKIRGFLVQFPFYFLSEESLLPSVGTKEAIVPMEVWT
# Conditions: PLD1 versus PLD2; cited from earlier work
smiles,measurement,value
"O=C(NCCN1CCC2(CC1)C(=O)NCN2c1ccccc1)c1cnc2ccccc2c1 [compound 9b, N-(2-(4-oxo-1-phenyl-1,3,8-triazaspiro[4,5]decan-8-yl)ethyl)quinoline-3-carboxamide]",PLD isoform selectivity,PLD2 selective
